From PubChem BioAssay AID686996 (Broad Institute, 2013)
The entries are a selection whose mix differs from that of the whole data set. Some tests of the compounds listed are not included; inactive here does not mean inactive elsewhere. Active and inactive are the calls of the source.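 Rule for the calls: active = mean inhibition across replicates at least about 35%, with every replicate also reaching that limit (limit read from the data); inconclusive = only one of the two criteria met; inactive = neither criterion met.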

Amino acid sequences for entries named in this document (tags omitted). Residues count along the entry.
UniProt P55212, 24-179 limits assumed: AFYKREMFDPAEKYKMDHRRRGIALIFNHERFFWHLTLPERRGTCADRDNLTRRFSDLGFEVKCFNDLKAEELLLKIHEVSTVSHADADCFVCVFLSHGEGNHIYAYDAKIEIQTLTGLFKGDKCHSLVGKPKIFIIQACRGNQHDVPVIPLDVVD
UniProt P55212, 194-293 limits assumed: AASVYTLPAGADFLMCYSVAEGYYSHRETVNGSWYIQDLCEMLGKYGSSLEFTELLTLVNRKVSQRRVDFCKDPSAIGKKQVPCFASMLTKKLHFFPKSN

These molecules were tested against Caspase-6 (Homo sapiens) (UniProt P55212) (assay: inhibition of CASP6 peptide cleavage – biochemical, VEID-R110 fluorescence, single point, set 2, primary screen (AID 686996;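 note: 0% = median of neutral control wells and 100% = no fluorescence left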)). Details: purified caspase-6, Z-VEID-R110 cleavage fluorescence; at 12.5 µM; hits give high values.

Row | Structure (SMILES) | inhibition
1 | O=C(NCC1(N2CCCCC2)CCCCC1)c1cccc(Cl)c1 | inactive: -1.63%
2 | COc1cccc(C(=O)NCC2(N3CCCCC3)CCCCC2)c1 | inactive: 1.95%
3 | COc1ccc(Cl)cc1C(=O)NCC1(N(C)C)CCCCC1 | inactive: -3.33%
4 | COc1cc(C(=O)NCC2(N(C)C)CCCCC2)c([N+](=O)[O-])cc1OC | inactive: 0.108%
5 | CN(C)C1(CNC(=O)c2ccc(Br)cc2)CCCCC1 | inactive: -2.61%
6 | CC(C)Oc1ccc(C(=O)NCC2(N(C)C)CCCCC2)cc1 | inactive: -1.91%
7 | O=C(OCCN1CCCC1)C(O)(c1ccccc1)c1ccccc1 | inactive: -0.39%
8 | C=C(C)C#CC(O)(C(=O)OC1CCN(C)CC1)c1ccccc1 (stereo not given) | inactive: -0.316%
9 | COc1ccc(Br)c(C(=O)NCC2(N3CCCCC3)CCCCC2)c1 | inactive: -1.41%
10 | Cc1ccc(C(=O)NCC2(N3CCCCC3)CCCCC2)cc1 | inactive: -3.75%
11 | CCN(CC)CC(C)C(C)OC(=O)C(O)(c1ccccc1)c1ccccc1 (stereo not given) | inactive: 2.48%
12 | COc1cc(SC)ccc1C(=O)NCC1(N(C)C)CCCCC1 | inactive: -2.36%
13 | CN1[C@@H]2CC[C@H]1CC(OC(=O)C(O)(c1ccccc1)c1ccccc1)C2 (stereo not given in full) | inactive: -4.06%
14 | O=C(NCC1(N2CCCCC2)CCCCC1)c1cc([N+](=O)[O-])ccc1Cl | inactive: -0.079%
15 | Cc1cc(C(=O)NCC2(N3CCCCC3)CCCCC2)ccc1[N+](=O)[O-] | inactive: -0.117%
16 | C=CCN1CCN(CCOC(=O)C(O)(c2ccccc2)c2ccccc2)CC1 | inactive: -0.766%
17 | O=C(NCC1(N2CCCCC2)CCCCC1)c1cc(F)c(F)cc1Cl | inactive: -0.14%
18 | Cc1ccccc1C(=O)NCC1(N2CCCCC2)CCCCC1 | inactive: -1.97%
19 | CN(C)C1CCCC1OC(=O)C(O)(c1ccccc1)c1ccccc1 (stereo not given) | inactive: -2.33%
20 | CN(C)c1ccc(C(=O)NCC2(N(C)C)CCCCC2)cc1 | inactive: -0.714%
